Sequences of proteins named here, by UniProt entry; tags and fusion partners are left off.
UniProt P14416, whole entry: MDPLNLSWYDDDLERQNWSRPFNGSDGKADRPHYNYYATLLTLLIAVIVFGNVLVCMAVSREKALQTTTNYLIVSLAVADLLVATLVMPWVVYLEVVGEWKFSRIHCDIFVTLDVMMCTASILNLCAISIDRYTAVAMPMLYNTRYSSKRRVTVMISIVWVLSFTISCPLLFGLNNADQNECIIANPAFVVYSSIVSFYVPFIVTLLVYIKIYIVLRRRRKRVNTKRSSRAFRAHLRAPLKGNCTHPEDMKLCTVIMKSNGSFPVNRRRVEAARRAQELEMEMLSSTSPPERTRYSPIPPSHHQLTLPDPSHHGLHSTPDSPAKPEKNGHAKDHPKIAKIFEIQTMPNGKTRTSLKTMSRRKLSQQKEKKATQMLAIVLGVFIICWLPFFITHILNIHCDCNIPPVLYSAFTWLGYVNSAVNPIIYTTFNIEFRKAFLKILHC

In ChEMBL document CHEMBL1140704, “Further structure-activity relationships study of hybrid 7-{[2-(4-phenylpiperazin-1-yl)ethyl]propylamino}-5,6,7,8-tetrahydronaphthalen-2-ol analogues: identification of a high-affinity D3-preferring agonist with potent in vivo activity with long duration of action” (J Med Chem, 2008):

How the values were obtained:
D(2) dopamine receptor [1] = molecular target: T1, D(2) dopamine receptor (Homo sapiens, UniProt P14416); test: biochemical
D(2) dopamine receptor [2] = molecular target: T1, D(2) dopamine receptor; test: Agonist activity at human cloned dopamine D2L receptor expressed in CHO cells assessed as stimulation of [35S]GTPgammaS binding; type: functional, cell-based

Work on `CCCN(CCN1CCN(c2ccccc2)CC1)C1CCc2c(O)cccc2C1` (stereo in doubt; (+)-25) yielded a Ki (D(2) dopamine receptor [1]) of 238 nM.
For `CCCN(CCN1CCN(c2ccccc2)CC1)C1CCc2c(O)cccc2C1` (stereo in doubt; (-)-25), the EC50 (D(2) dopamine receptor [2]) was 2.22 nM.
`CCCN(CCN1CCN(c2ccccc2)CC1)C1CCc2c(O)cccc2C1` (stereo in doubt; 6a) showed a Ki (D(2) dopamine receptor [1]) of 58.6 nM.
